The values below are quoted from earlier work in patent publication US9061070B2, “Treating stroke and other diseases without inhibiting N-type calcium channels” (NoNO, Inc., priority 2007, dated 2015).

For this data set the following is noted: cited from earlier work.

Only a part of the results on these compounds is given; other tests are left out.

With `CCC(=O)N(c1ccccc1)C1(C(=O)OC)CCN(CCC(=O)OC)CC1`, the halflife is on record as 3.5 min.
